Source: PubChem BioAssay AID1521 (The Scripps Research Institute Molecular Screening Center, 2009)
The list shows a part of the results, in another mix than the full data. The source made the active and inactive calls.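 How the source made its calls: active means mean inhibition above the hit cutoff derived in the earlier primary screen (cut at about 25% in these data); inactive means the rest.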

Assay: reduced survival of JAK2V617F-driven Ba/F3 cells – cell-based, Ba/F3 EpoR-JAK2V617F, luminescence, triplicate, JAK2V617F inhibitor project, confirmation (AID 1521);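 further: 0% = DMSO-treated cells and 100% = JAK inhibitor I control wells; higher means lower luminescence from reduced cell ATP and viability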
Conditions: Ba/F3 EpoR-JAK2V617F viability, CellTiter-Glo luminescence; at 5.6 µM; active compounds read high

With `CC(=O)NC(SC(=S)N(CC(C)C)CC(C)C)C(Cl)(Cl)Cl` (stereo unspecified) the inhibition was inactive: -13.2%.
